Values quoted from earlier work, collected in patent publication US20050113573A1, “Nitroso compounds to treat ischemia” (priority 2003, published 2005).
Some compounds may have been tested in ways that are not shown here.

System: rat kidney
Conditions: rat kidney ischemia/reperfusion

sodium nitroprusside
survival and histological damage: significantly better survival with minimal histological damage
